Data published in PMC11357160, “Gouregine, an α-Gem-Dimethyltetradehydrocularine Alkaloid, and Other Aporphinoid Alkaloids from the Bark of Guatteria olivacea (Annonaceae) and Their In Vitro Cytotoxic Activities” (Molecules, 2024).

System: KG-1a (human myeloid leukemia)
Assay: Alamar blue cytotoxicity assay, 72 h, KG-1a
Assay type: cell-based
Conditions: SI = IC50 [noncancerous cells MRC-5]/IC50 [KG-1a]
Method: The in vitro cytotoxic activities of the isolated compounds 1–9 were evaluated against the cancer cell lines HepG2 (human hepatocellular carcinoma), KG-1a (human myeloid leukemia), and HCT116 (human colon carcinoma), and the noncancerous cell line MRC-5 (human lung fibroblast) via the Alamar blue assay after 72 h of incubation.
The HepG2 (human hepatocellular carcinoma), KG-1a (human myeloid leukemia), HCT116 (human colon carcinoma), and MRC-5 (human lung fibroblast) cell lines were obtained from the American Type Culture Collection (ATCC, Manassas, VA, USA) and were cultured as recommended by the American Type Culture Collection (ATCC) animal culture guide. All the cell lines were tested for mycoplasma via a mycoplasma stain kit (Sigma-Aldrich) to validate the use of cells that were free from contamination.
For the cytotoxicity assay, cell viability was quantified via the Alamar blue method, as previously described. For all the experiments, the cells were plated in 96-well plates. The chemical constituents evaluated varied in purity between 90% and 99.8%, which was determined on the basis of the relative integrals of the signals of the constituents in relation to the signals of the impurities contained. […] The absorbances at 570 nm and 600 nm were measured via a SpectraMax 190 Microplate Reader (Molecular Devices, Sunnyvale, CA, USA). […]

## COc1cccc2c1C(=O)c1c(O)c3c(c(O)c1C2=O)C[C@@](O)(C(=O)CO)C[C@@H]3O[C@H]1C[C@H](N)[C@H](O)[C@H](C)O1 [Doxorubicin, doxorubicin hydrochloride, reference compound]
  Selectivity index (SI): 6.45

Where a name gives a salt, the structure may show the parent alone.
